Assay results taken from patent US20260193293A1, “PEPTIDES CAPABLE OF INHIBITING PROTEIN-PROTEIN INTERACTIONS AT GABAB1A SUBUNIT AND USES THEREOF” (UNIVERSITY OF COPENHAGEN, priority 2022, published 2026).
Where two headings read alike, the source gives them in different places.

The chains behind the UniProt entries cited, without tags or fusion partners. Residues count along the entry.
UniProt Q9WV18, 20-960: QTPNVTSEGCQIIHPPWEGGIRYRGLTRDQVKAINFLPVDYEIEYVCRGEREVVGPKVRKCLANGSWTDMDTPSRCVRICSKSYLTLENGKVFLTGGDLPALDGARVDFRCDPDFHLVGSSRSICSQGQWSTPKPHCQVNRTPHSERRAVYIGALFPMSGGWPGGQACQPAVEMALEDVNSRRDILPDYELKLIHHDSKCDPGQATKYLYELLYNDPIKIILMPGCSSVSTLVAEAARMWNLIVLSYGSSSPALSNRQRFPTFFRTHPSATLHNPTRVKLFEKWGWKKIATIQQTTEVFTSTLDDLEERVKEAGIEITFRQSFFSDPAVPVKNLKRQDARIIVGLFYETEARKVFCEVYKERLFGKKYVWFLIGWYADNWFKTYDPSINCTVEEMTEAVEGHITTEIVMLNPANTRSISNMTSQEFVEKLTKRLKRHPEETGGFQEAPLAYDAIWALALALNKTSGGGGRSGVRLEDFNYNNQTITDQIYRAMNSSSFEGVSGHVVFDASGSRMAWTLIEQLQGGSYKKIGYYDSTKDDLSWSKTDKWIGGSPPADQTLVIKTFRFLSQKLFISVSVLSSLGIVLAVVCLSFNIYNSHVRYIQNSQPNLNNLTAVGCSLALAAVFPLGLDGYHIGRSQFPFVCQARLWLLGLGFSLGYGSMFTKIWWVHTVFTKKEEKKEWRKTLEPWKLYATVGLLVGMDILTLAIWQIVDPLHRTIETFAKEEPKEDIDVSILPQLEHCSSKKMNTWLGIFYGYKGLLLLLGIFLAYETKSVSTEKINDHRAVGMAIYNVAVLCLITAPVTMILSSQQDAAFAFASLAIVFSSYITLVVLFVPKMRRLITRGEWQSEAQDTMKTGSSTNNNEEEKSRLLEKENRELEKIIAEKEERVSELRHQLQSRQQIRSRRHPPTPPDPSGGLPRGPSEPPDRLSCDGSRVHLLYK
UniProt Q9UBS5, 15-961 limits assumed: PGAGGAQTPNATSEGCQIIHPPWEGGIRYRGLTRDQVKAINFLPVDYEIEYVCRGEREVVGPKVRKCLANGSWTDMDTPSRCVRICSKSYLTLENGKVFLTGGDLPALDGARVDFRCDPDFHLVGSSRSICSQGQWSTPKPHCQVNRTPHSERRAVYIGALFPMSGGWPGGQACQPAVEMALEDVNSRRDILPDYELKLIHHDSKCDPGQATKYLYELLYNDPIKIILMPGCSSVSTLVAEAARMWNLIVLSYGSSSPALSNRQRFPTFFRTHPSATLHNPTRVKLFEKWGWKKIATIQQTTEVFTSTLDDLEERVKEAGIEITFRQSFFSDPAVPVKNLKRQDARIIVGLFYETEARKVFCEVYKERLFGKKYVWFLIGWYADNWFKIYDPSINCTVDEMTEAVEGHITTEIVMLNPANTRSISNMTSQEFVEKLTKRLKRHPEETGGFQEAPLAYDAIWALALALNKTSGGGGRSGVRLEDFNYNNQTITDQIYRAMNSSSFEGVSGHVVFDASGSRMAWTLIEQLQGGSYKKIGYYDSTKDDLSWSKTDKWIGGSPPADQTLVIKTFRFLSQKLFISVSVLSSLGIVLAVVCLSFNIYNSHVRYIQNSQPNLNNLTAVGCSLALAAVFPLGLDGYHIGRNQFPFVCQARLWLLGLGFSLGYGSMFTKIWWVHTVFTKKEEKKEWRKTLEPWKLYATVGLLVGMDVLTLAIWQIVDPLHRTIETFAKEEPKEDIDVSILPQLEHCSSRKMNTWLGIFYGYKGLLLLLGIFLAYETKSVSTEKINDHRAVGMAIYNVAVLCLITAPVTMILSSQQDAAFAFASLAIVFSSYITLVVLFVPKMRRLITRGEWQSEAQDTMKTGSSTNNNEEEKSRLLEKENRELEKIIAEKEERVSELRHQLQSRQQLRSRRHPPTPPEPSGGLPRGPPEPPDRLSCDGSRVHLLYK

Columns and labels:
[1] = molecular target: Sushi domains (SD1/2) protein; assay: Fluorescence polarization (FP) competition assay with AJAP-1probe, calculated Ki; format: binding
Procedure: Fluorescence polarization (FP). FP assay was employed to determine the binding affinity of peptides in flat bottom black 384-well plates (Corning Life Science) using a Safire2 plate reader (Tecan). All experiments were conducted in 1×PBS (pH 7.4) containing 1% bovine serum albumin (BSA) at rt. The fluorescence polarization values were measured using excitation/emission wavelengths of 530/580 nm. The instrumental Z-factor was adjusted to obtain the maximum fluorescence intensity and the G-factor was calibrated to give an initial millipolarization value of 20 mP. All FP assays including saturation or competition experiments were performed using 25 nM of TAMRA labeled peptides as probes. For saturation assay, the millipolarization values were measured after mixing of probes with 12 serial 1 to 1 diluted concentrations of Sushi domains (SD1/2) protein. All experiments were performed in triplicate and the data were plotted to the one-site binding model using GraphPad Prism 9 to calculate the Kd of probes. […] The experiments were performed at least in triplicate and the data were fitted to the sigmoidal dose response curve using GraphPad Prism 9 to obtain the IC50 of peptides. The Ki values were calculated according to Nikolovska-Coleska et al^310.

GB1a subunit = molecular target: T1, GB1a subunit (Mus musculus, UniProt Q9WV18); assay: Pull-down from mouse brain membrane fraction, immunoblotting; format: binding; details: immobilized peptides, whole-brain lysate
T1 construct: using the homogenized membrane fraction of wild type mouse brains; from tissue; host or cells: adult mouse brain, solubilized membrane-enriched fraction
Procedure: Covalent immobilization of peptides. Peptides AJAP-1WT, 17 and 20 comprising a C-terminal Cys and a PEG2 linker, were loaded covalently to Dynabeads M-270 Epoxy beads (Thermo Fischer Scientific) according to the protocol of the manufacturer. 25 μL DMSO stocks of peptides (10 mM) were diluted 15 times into 350 μL coupling buffer (100 mM PBS buffer containing 2 M […] and 10 mM TCEP, PH=7.4) and agitated overnight at 37° C. with Dynabeads M-270 Epoxy beads (5 mg, ~3.3×10^8 beads), which had been washed and equilibrated with coupling buffer before. After removing excess peptides, the Dynabeads M-270 Epoxy beads were washed three times and equilibrated with 100 mM PBS buffer, pH=7.4 and stored at 4° C.
Preparation of whole-brain lysates. Dissected adult mouse brains were placed in ice-cold homogenization buffer (320 mM sucrose, 4 mM HEPES, PH 7.5, 1 mM EDTA, 1 mM EGTA, supplemented with complete EDTA-free protease inhibitor mixture (Roche), 1 mL per 100 mg of brain) and homogenized with a glass-Teflon homogenizer (40 passes) on ice. The homogenized material was cleared by centrifugation at 500×g (4° C., 15 min). […]

GB1a/2 receptors = molecular target: T2, GB1a/2 receptors (Homo sapiens, UniProt Q9UBS5); assay: SRE-Luciferase accumulation assay; format: cell-based; details: in the absence of AJAP-1
T2 construct: Flag; expressed in transfected cells; host or cells: HEK293T cells stably expressing chimeric Gαq/i
From the text: (§1) To elucidate whether our developed peptides AJAP-1WT, 16 and 20 could interact and disrupt the trans-interaction between AJAP-1 and GB1a/2Rs, we used an established accumulation assay based on coupling GB1a/2Rs to phospholipase C (PLC) via chimeric Gαqi (Conklin et al. 1993). PLC activity is then monitored with a serum responsive element-luciferase (SRE-Luciferase) reporter amplifying the GB1a/2Rs response (Yoo et al. 2017) (FIG. 5).
(§2) HEK293T cells stably expressing Gαq/i were transiently transfected with Flag-GB1a, Flag-GB2 and SRE-FLuc with or without AJAP-1. In order to ensure GB1a/2 binding of AJAP-1 in trans, a pool of HEK293T-Gαq/i cells expressing AJAP-1 was mixed with HEK293-Gαq/i cells expressing Flag-GB1a, Flag-GB2 and SRE-FLuc. Transfected cells were distributed into 96-well microplates (Greiner Bio-One) at a density of 80,000 cells/well. After 24 h, the culture medium was replaced with Opti-MEM™-GlutaMAX™ Peptides were incubated in Opti-MEM™-GlutaMAX™ for 10 minutes. In presence of peptide, GB1a/2 receptors were activated with various concentrations of GABA for 6 h. FLuc activity in lysed cells was measured using the Luciferase® Assay Kit (Promega) and a Spark® microplate reader. Luminescence signals were adjusted by subtracting the luminescence obtained when expressing SRE-FLuc fusion proteins alone.

[2] = molecular target: T3, GB1a/2 receptors in presence of AJAP-1 in trans (Homo sapiens, UniProt Q9UBS5); assay: SRE-Luciferase accumulation assay; format: cell-based; details: 10 μM peptide
T3 construct: Flag; expressed in transfected cells; host or cells: HEK293T cells stably expressing chimeric Gαq/i
From the text: as §1, §2

[3] = system: GBRs at the neuronal membrane; assay: Confocal imaging of AJAP1-mediated recruitment of GB1a/2 receptors, HEK293T/neuron co-cultures; format: cell-based, mouse; details: compared to Scr-20; 10, 30 and 60 min incubation
Procedure: FIG. 6: High-affinity peptide efficiently abolishes AJAP1-mediated recruitment of GB1a/2 receptors at neuron's membrane. A) Confocal fluorescent imaging of AJAP-1 and GBRs using AJAP-1 transfected HEK293T/mouse hippocampal neuron co-cultures. […] Furthermore, the inhibitory effect becomes increasingly significant with extended incubation time at 30 minutes and 60 minutes relative to at 10 min.

[4] = In vitro plasma stability; details: human

CC[C@H](C)[C@H](NC(=O)[C@H](Cc1ccc2ccccc2c1)NC(=O)[C@H](CC(=O)O)NC(=O)[C@H](CC(=O)O)NC(=O)[C@H](CC(=O)O)NC(=O)[C@H](CCC(=O)O)NC(C)=O)C(=O)N[C@@H](CC(=O)O)C(=O)N[C@@H](Cc1c[nH]c2ccccc12)C(=O)N[C@@H](Cc1ccc(O)cc1)C(=O)N[C@@H](CC(=O)O)C(=O)N[C@@H](CO)C(=O)N[C@@H](CC(=O)O)C(=O)N[C@@H](CC(=O)O)C(=O)N[C@@H](CC(=O)O)C(N)=O [Peptide 20]
Ki ([1]; CPP tagged peptides overview, SD1/2 binding affinity, mean ± SEM, n ≥ 3, read-out: Ki): 1.5 ± 0.2 nM
Ki ([1]; Table 1, affinity maturation, mean ± SEM, n ≥ 3, read-out: Ki): 1.5 ± 0.2 nM
Ki ([1]; Table 16, ncAAs incorporated peptides, read-out: Ki (nM) mean ± SEM): 1.5 ± 0.2 nM
Ki ([1]; purified peptides, read-out: Ki): 1.5 nM
pull-down of native GB1a (GB1a subunit): ability to bind and enrich full-length GB1a subunit
Emax values of GABA-activated GB1a/2Rs (GB1a/2 receptors): did not affect the Emax values
reduction of negative allosteric modulation effects of AJAP-1 at GB1a/2Rs in trans [2]: to a greater extent than AJAP-1WT peptide
basal activity of GB1a/2Rs ([2]; in presence of AJAP-1 in trans): elevated basal activity
fluorescence intensity of GBRs at the neuronal membrane [3]: significant reduction in membrane abundance
half-life [4]: > 48 h
